## AlphaSeq binding of Ab-14 light chain variants to a spike HR2 peptide

All variants were tested on one target, the spike HR2 peptide PDVDLGDISGINAS (SARS-CoV-2).

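This is the validation round: designs drawn from the data on random variants, tested in the same kind of assay. Their group label is 14L_GP_Gen (GP: Gaussian process model; Gen: genetic algorithm; a sequence that several methods proposed may carry one label only). Affinity was read by AlphaSeq, a pooled yeast mating assay with surface-displayed partners. Pairs that bind mate more often; barcode pairs of the diploids are counted by sequencing. Each replicate has its own calibration line, from reference interactions of the BCL2 family. Mating was done six times.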

Parent scFv Ab-14: VH joined to VL by the linker GGGGSGGGGSGGGGS. Changes lie in the light chain CDRs alone.
VH: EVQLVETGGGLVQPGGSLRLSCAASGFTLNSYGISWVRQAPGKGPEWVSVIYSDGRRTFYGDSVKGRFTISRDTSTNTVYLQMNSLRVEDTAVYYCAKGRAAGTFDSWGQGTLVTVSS
VL: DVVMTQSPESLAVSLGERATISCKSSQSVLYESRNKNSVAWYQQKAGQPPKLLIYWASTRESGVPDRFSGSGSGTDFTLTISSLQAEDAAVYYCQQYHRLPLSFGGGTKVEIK

Each variant's VL is given in full. Values are log10 of the apparent Kd in nM; lower means stronger binding. Averages over replicates are reported, and they cover detected replicates only. As a blank, each scFv also met three strains without target: over all light chain designs, 4% of these pairings were detected, typically at 2.64 and seldom below 1.59. Also given: how often the same scFv was detected with the empty control strains, with their mean in brackets. A sequence measured in both rounds can read differently, since the two assays cover different ranges. In the paper, a design with two or fewer of six values counts as a poor binder. The parent sequence was in this pool as ten entries: three were never detected, three once, and four in most replicates, with averages from 0.34 to 2.37.

| VL | log10 Kd, replicates | mean log10 Kd (nM) | signal with controls |
|---|---|---|---|
| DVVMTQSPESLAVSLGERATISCKLSQSVLYEERQKNSVAWYQQKAGQPPKLLIYNASTRESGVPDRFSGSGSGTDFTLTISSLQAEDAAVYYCQQYHRLPLSFGGGTKVEIK | 0.46 0.45 0.08 0.25 0.12 0.46 | 0.30 | 1 of 18 (2.15) |
| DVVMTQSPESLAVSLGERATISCKLSQSQDYESRNKNSVAWYQQKAGQPPKLLIYNASTRESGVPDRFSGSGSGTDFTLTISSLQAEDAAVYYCQQYHRLPLSFGGGTKVEIK | -0.23 -0.26 -0.18 -0.41 -0.30 -0.22 | -0.27 | 0 of 18 |
| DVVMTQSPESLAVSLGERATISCKLQQSGLYESRNKNSVAWYQQKAGQPPKLLIYEASTRESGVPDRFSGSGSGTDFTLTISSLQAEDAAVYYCQQYHRLPLSFGGGTKVEIK | 0.14 -0.15 -0.02 -0.14 -0.04 0.14 | -0.01 | 2 of 18 (3.41) |
| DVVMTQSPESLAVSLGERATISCKLSQSVLYESRNKNSVAWYQQKAGQPPKLLIYNAETRESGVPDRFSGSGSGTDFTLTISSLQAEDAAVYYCQQYHRLPLSFGGGTKVEIK | 0.06 -0.15 -0.06 -0.22 -0.10 0.00 | -0.08 | 1 of 18 (2.98) |
| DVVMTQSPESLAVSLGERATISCKLSQSVLYESRNQNSVAWYQQKAGQPPKLLIYEASTRESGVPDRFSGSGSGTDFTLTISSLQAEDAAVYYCQQYHRLPLSFGGGTKVEIK | -0.59 -0.65 -0.67 -0.64 -0.79 -0.52 | -0.64 | 0 of 18 |
| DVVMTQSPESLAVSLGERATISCKVSMSVLYESRNKNSVAWYQQKAGQPPKLLIYDASTRESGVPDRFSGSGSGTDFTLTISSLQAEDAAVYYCQQYHRLPLSFGGGTKVEIK | -0.07 -0.14 -0.23 -0.11 -0.23 -0.36 | -0.19 | 1 of 18 (2.93) |
| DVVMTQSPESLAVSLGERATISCKLSQSVLYESRNKNSVAWYQQKAGQPPKLLIYEASQRESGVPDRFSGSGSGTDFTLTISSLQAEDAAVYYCQDYHRLPLSFGGGTKVEIK | 0.57 0.41 0.20 -0.06 0.36 0.15 | 0.27 | 0 of 18 |
| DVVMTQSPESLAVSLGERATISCKVEQSVLYESRNKNAVAWYQQKAGQPPKLLIYNASTRESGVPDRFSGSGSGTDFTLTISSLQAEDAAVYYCQQYHRLPLSFGGGTKVEIK | 0.30 0.14 0.11 0.28 0.29 0.33 | 0.24 | 0 of 18 |
| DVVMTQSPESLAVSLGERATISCKLSQSVLYESRNKNAVAWYQQKAGQPPKLLIYDASTRESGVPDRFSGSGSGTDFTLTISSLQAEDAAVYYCQQYHRLPLSFGGGTKVEIK | 0.24 -0.16 -0.19 -0.04 -0.14 -0.19 | -0.08 | 0 of 18 |
| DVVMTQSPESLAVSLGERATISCKVSQSHDYESRNKNSVAWYQQKAGQPPKLLIYDASTRESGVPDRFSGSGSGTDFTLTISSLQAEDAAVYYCQQYHRLPLSFGGGTKVEIK | -0.22 -0.13 -0.34 -0.35 -0.20 -0.11 | -0.22 | 1 of 18 (2.53) |
| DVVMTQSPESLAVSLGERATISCKLEQSVLYESRNKNSVAWYQQKAGQPPKLLIYQASTRESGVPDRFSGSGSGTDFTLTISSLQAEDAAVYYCQQYHRLPLSFGGGTKVEIK | 0.78 0.72 0.62 0.30 0.57 0.55 | 0.59 | 0 of 18 |
| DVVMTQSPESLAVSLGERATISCKLPQSVPYESRNKNSVAWYQQKAGQPPKLLIYHASTRESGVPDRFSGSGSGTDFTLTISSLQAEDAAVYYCQQYHRLPLSFGGGTKVEIK | 0.51 0.42 0.19 0.25 0.25 0.54 | 0.36 | 3 of 18 (2.94) |
| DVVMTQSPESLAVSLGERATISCKLSQEVLYESRNKNSVAWYQQKAGQPPKLLIYGASTRESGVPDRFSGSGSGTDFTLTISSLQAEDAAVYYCQQYHRLPLSFGGGTKVEIK | 1.34 1.10 1.06 1.11 0.99 1.09 | 1.11 | 1 of 18 (1.95) |
| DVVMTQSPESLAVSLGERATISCKSSQSVPYESRNKNSVAWYQQKAGQPPKLLIYEASTRMSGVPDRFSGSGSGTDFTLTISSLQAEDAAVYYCQQYHRLPLSFGGGTKVEIK | 0.15 -0.36 -0.20 -0.39 -0.16 0.01 | -0.16 | 0 of 18 |
| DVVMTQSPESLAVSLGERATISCKVSQSGLYESRNKWSVAWYQQKAGQPPKLLIYNASTRESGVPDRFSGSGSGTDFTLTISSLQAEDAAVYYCQQYHRLPLSFGGGTKVEIK | 0.60 0.31 0.29 0.19 0.13 0.32 | 0.31 | 2 of 18 (2.75) |
| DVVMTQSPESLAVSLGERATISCKVPQSWLYESRNKNSVAWYQQKAGQPPKLLIYNASTRESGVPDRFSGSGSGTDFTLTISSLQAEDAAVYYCQQYHRLPLSFGGGTKVEIK | -0.10 -0.37 -0.45 -0.24 -0.55 -0.31 | -0.34 | 0 of 18 |
| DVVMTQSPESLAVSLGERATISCFLSQSVLYESRNKNSVAWYQQKAGQPPKLLIYNASQRESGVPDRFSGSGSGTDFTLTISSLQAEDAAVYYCQQYHRLPLSFGGGTKVEIK | -0.36 -0.39 -0.46 -0.17 -0.26 -0.26 | -0.32 | 0 of 18 |
| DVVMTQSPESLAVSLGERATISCKLSQSYLYESRNFNSVAWYQQKAGQPPKLLIYNASTRESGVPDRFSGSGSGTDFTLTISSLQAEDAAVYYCQQYHRLPLSFGGGTKVEIK | -0.11 -0.48 -0.08 -0.12 -0.38 -0.07 | -0.21 | 0 of 18 |
| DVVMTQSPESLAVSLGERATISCKLSQSMDYESRNKNSVAWYQQKAGQPPKLLIYNASTRESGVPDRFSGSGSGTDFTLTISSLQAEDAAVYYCQQYHRLPLSFGGGTKVEIK | 0.11 -0.15 0.01 -0.18 -0.22 0.10 | -0.05 | 0 of 18 |
| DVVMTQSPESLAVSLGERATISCKLSQSMLYESRNKNSVAWYQQKAGQPPKLLIYEASTRMSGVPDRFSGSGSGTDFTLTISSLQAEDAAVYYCQQYHRLPLSFGGGTKVEIK | 0.09 0.01 -0.05 -0.16 0.01 0.10 | 0.00 | 2 of 18 (3.30) |
| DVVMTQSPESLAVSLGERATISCKVLQSVLYESRNKNSVAWYQQKAGQPPKLLIYNASTRESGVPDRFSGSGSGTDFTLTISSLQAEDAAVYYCQQYHRLPLSFGGGTKVEIK | -0.22 -0.17 -0.39 -0.42 -0.32 -0.23 | -0.29 | 1 of 18 (2.91) |
| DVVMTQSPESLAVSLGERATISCHLSQSVLYESRNKNSVAWYQQKAGQPPKLLIYNASTRYSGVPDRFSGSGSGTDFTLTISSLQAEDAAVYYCQQYHRLPLSFGGGTKVEIK | 0.05 -0.13 -0.18 -0.13 -0.34 0.18 | -0.09 | 1 of 18 (4.34) |
| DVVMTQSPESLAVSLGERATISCKLQQSNLYESRNKNSVAWYQQKAGQPPKLLIYNASTRESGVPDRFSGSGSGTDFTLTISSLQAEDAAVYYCQQYHRLPLSFGGGTKVEIK | 0.24 0.32 0.08 0.00 -0.04 0.31 | 0.15 | 1 of 18 (2.53) |
| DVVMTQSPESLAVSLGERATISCKISQSYLYESRNKNSVAWYQQKAGQPPKLLIYNASTRESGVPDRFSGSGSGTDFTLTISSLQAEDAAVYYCQQYHRLPLSFGGGTKVEIK | -0.33 -0.17 -0.42 -0.47 -0.21 0.04 | -0.26 | 1 of 18 (1.52) |

Picked from the list: the 4 lowest averages where every replicate gave a value.

{"VL": "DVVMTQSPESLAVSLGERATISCKLSQSVLYESRNQNSVAWYQQKAGQPPKLLIYEASTRESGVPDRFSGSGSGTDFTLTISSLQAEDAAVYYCQQYHRLPLSFGGGTKVEIK", "log10 Kd, replicates": "-0.59 -0.65 -0.67 -0.64 -0.79 -0.52", "mean log10 Kd (nM)": "-0.64", "signal with controls": "0 of 18"}
{"VL": "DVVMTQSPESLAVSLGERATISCKVPQSWLYESRNKNSVAWYQQKAGQPPKLLIYNASTRESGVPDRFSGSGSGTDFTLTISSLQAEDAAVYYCQQYHRLPLSFGGGTKVEIK", "log10 Kd, replicates": "-0.10 -0.37 -0.45 -0.24 -0.55 -0.31", "mean log10 Kd (nM)": "-0.34", "signal with controls": "0 of 18"}
{"VL": "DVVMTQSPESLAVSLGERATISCFLSQSVLYESRNKNSVAWYQQKAGQPPKLLIYNASQRESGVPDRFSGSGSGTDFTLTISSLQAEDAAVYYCQQYHRLPLSFGGGTKVEIK", "log10 Kd, replicates": "-0.36 -0.39 -0.46 -0.17 -0.26 -0.26", "mean log10 Kd (nM)": "-0.32", "signal with controls": "0 of 18"}
{"VL": "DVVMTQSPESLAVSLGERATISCKVLQSVLYESRNKNSVAWYQQKAGQPPKLLIYNASTRESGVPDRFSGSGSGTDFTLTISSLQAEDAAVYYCQQYHRLPLSFGGGTKVEIK", "log10 Kd, replicates": "-0.22 -0.17 -0.39 -0.42 -0.32 -0.23", "mean log10 Kd (nM)": "-0.29", "signal with controls": "1 of 18 (2.91)"}

Source: Li et al. 2023 (doi:10.1038/s41467-023-39022-2), MIT Lincoln Laboratory and A-Alpha Bio; data file from the FLAb repository.